## Melting point values, as collected for the OPERA models

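These are experimental values that the OPERA curators gathered from public databases to train and test their QSAR models. A listed value is a point estimate from one report or more. Method and conditions are not stated for these values. The measured form (salt, isomer or mixture) is not always the one drawn. Some entries may be limits or estimates that an upstream database listed as plain numbers.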

Melting points are in °C. "–" marks a cell with nothing listed here. The databases behind each value are named after "via".

SMILES,name,melting point (°C),via
C=CCOc1ccc(C(=O)O)cc1OC,4-(allyloxy)-3-methoxybenzoic acid,174,OCHEM
CCCCCCCCCOC(=O)c1ccc(C(=O)OCCCCCCCCC)c(C(=O)OCCCCCCCCC)c1,"Trinonyl benzene-1,2,4-tricarboxylate",8.55,eChemPortal
Cc1nc2scc(C)n2c1C=O,"3,6-Dimethylimidazo[2,1-b][1,3]thiazole-5-carbaldehyde",154,OCHEM
O=C(O)c1ccc(S(=O)(=O)N2CCCCCC2)cc1,4-(azepan-1-ylsulfonyl)benzoic acid,236,OCHEM
Clc1cc(Cl)c(Oc2cc(Cl)c(Cl)c(Cl)c2Cl)cc1Cl,"2,2',3,4,4',5,5'-Heptachlorodiphenyl ether",89,QSARDB
Nc1ccc(/N=N/c2ccc(NS(=O)(=O)c3ccc(/N=N/c4c(S(=O)(=O)[O-])cc5cc(S(=O)(=O)[O-])c(/N=N/c6ccc([N+](=O)[O-])cc6)c(N)c5c4O)cc3)cc2)c(N)c1.[Na+].[Na+],C.I. Acid Brown 210,330,eChemPortal
CNC(=O)c1ccccc1O,"Salicylamide, N-methyl-",84,OCHEM
CN(C)Cc1c(O)ccc2ccccc12,1-[(dimethylamino)methyl]-2-naphthol,74,OCHEM
Cc1noc(-c2ccccc2N)n1,"2-(3-Methyl-1,2,4-oxadiazol-5-yl)aniline",121,OCHEM
CCCCCC/C=C/CCCCCCCCCC(=O)O,Vaccenic acid,44,OCHEM
CCOC(=O)n1c(-c2cscn2)nc2ccccc21,"Ethyl 2-(1,3-thiazol-4-yl)-1H-benzimidazole-1-carboxylate",84.5,OCHEM
CCCCCCCC(=O)OCC(C)(C)COC(=O)CCCCCCC,Neopentyl glycol dicaprylate,-54,eChemPortal
COC(=O)C1(O)CC(CO)=NN1c1ncccc1Cl (stereo not given),–,129,eChemPortal
O=C1CCCc2cc(C(=O)CCl)ccc2N1,"7-(Chloroacetyl)-1,3,4,5-tetrahydro-2H-1-benzazepin-2-one",155,OCHEM
Clc1ccc(-c2ccc(Cl)cc2Cl)c(Cl)c1,–,83,QSARDB
Cc1ccc(=S)[nH]c1,5-methylpyridine-2-thiol,200,OCHEM
Cc1ccc(NC(=S)NN)cc1C,"n-(3,4-dimethylphenyl)hydrazinecarbothioamide",177,OCHEM
CN(C)CCCNCCC#N,3-{[3-(Dimethylamino)propyl]amino}propanenitrile,-20.07,eChemPortal
Nc1ccccc1-c1cc(F)c(F)c(F)c1,"3',4',5'-Trifluoro[1,1'-biphenyl]-2-amine",69,eChemPortal
O=C1CCn2cccc21,"3H-1,2-Dihydro-1-pyrrolizinone",55,OCHEM
C=CC(=O)OCCOC(=O)NCCCCCCCCCCCCCCCCCC,–,72.3,eChemPortal
Cc1cc(CC#N)c(C)n1-c1ccc(Cl)cc1,"[1-(4-Chlorophenyl)-2,5-dimethyl-1H-pyrrol-3-yl]acetonitrile",75,OCHEM
NC(c1ccccc1)c1ccncc1 (stereo not given),phenyl(pyridin-4-yl)methanamine,41,OCHEM
C=C[C@H]1CC[C@H]([C@H]2CC[C@H](CCCCC)CC2)CC1,trans-4-pentyl-trans-4'-vinylbicyclohexyl,51.4,eChemPortal
COc1cc(C(=O)O)ccc1OCc1ccccc1,4-(benzyloxy)-3-methoxybenzoic acid,175,OCHEM
F[P-](F)(F)(F)(F)F.F[P-](F)(F)(F)(F)F.c1ccc([S+](c2ccccc2)c2ccc(Sc3ccc([S+](c4ccccc4)c4ccccc4)cc3)cc2)cc1,–,237.5,eChemPortal
COc1ccc(C(N)=NO)cc1OC,"3,4-Dimethoxybenzamidoxime",165,OCHEM
Brc1ccc(Oc2ccc(Br)c(Br)c2)cc1,BDE-37,48.5,OCHEM
OCC[N+](CCO)(CCO)CCO.[OH-],–,123,eChemPortal
Cc1ccc(OCCCS(=O)(=O)[O-])c([N+](=O)[O-])c1.[Na+],Sodium 3-(4-methyl-2-nitrophenoxy)propane-1-sulfonate,82,eChemPortal
COc1cc(N=Nc2ccc([N+](=O)[O-])cc2)ccc1N=Nc1ccc(O)cc1,C.I. Disperse Orange 29,225.7,eChemPortal
Cc1cccc(F)c1C(=O)O,2-Fluoro-6-methylbenzoic acid,115,OCHEM
CC(C)(C)c1ccc(OCC2CO2)cc1 (stereo not given),tert-Butyl phenyl glycidyl ether,-39,eChemPortal
Cc1cccc(NC(=S)NN)c1C,"N-(2,3-Dimethylphenyl)hydrazinecarbothioamide",171,OCHEM
NCC[C@H](O)C(=O)N[C@@H]1C[C@H](N)[C@@H](O[C@H]2O[C@H](CN)CC[C@H]2N)[C@H](O)[C@H]1O[C@H]1O[C@H](CO)[C@@H](O)[C@H](N)[C@H]1O,Arbekacin,178,PubChem
O=C1Nc2ccc(S(=O)(=O)Cl)cc2C1(Cl)Cl,"3,3-Dichloro-2-oxoindoline-5-sulphonyl chloride",135,OCHEM
Cl.FC1(F)CNCC1(F)F,"3,3,4,4-Tetrafluoropyrrolidine Hydrochloride",194.5,ChemicalBook
O=C(O)COc1ccc(C(=O)c2ccccc2)cc1,"Acetic acid, (4-benzoylphenoxy)-",154,OCHEM
O=C(O)c1ccc2c(=O)[nH][nH]c(=O)c2c1,"1,4-dioxo-1,2,3,4-tetrahydrophthalazine-6-carboxylic acid",251,OCHEM

Excerpt, the opening 3 entries:

SMILES	name	melting point (°C)	via
C=CCOc1ccc(C(=O)O)cc1OC	4-(allyloxy)-3-methoxybenzoic acid	174	OCHEM
CCCCCCCCCOC(=O)c1ccc(C(=O)OCCCCCCCCC)c(C(=O)OCCCCCCCCC)c1	Trinonyl benzene-1,2,4-tricarboxylate	8.55	eChemPortal
Cc1nc2scc(C)n2c1C=O	3,6-Dimethylimidazo[2,1-b][1,3]thiazole-5-carbaldehyde	154	OCHEM

Source: data files of OPERA 2.9 (Mansouri et al.), github.com/kmansouri/OPERA.